Patent US12215173B2, “Kappa opioid receptor peptide amide ligands” (priority 2019, dated 2025)

By UniProt entry, the sequences of proteins in these tests, tags left out.
UniProt P41145, whole entry: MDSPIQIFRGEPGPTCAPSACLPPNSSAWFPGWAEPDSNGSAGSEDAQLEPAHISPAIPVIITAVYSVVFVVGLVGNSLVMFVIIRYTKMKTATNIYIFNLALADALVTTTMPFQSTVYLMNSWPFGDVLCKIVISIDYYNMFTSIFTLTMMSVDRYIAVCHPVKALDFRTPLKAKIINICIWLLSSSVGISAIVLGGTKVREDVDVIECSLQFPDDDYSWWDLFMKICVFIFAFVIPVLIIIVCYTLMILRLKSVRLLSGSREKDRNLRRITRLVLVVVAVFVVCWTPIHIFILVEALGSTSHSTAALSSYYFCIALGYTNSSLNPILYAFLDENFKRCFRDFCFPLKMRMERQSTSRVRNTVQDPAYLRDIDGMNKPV
UniProt P35372, whole entry: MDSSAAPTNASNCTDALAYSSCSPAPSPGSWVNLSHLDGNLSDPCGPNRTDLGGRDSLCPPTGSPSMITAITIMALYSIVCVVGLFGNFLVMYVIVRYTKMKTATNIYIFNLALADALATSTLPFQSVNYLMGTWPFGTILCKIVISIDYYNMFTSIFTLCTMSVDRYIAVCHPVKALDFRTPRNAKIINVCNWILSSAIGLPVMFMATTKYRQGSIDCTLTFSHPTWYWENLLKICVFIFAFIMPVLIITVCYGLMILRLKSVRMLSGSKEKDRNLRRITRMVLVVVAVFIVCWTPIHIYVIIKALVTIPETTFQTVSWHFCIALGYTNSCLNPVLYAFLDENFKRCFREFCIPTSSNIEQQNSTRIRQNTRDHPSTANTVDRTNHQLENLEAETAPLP
UniProt P41143, whole entry: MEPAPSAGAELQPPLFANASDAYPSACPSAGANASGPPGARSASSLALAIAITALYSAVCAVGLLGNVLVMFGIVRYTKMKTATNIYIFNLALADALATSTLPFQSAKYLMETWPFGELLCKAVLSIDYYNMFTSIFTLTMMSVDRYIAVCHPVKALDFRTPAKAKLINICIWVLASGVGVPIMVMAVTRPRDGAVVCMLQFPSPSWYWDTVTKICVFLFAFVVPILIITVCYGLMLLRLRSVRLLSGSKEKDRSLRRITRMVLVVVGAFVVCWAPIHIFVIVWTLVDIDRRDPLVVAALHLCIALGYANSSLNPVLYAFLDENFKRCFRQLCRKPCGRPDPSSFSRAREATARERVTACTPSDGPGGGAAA

Experiments:
[1] = target: recombinant human kappa (KOR) opioid receptor (Homo sapiens (Human), UniProt P41145); assay: Opioid receptor radioligand binding assay, KOR; conditions: read-out: KOR, IC50, HEK293 cell membranes, 0.5 nM [3H]diprenorphine
[2] = target: recombinant human mu (MOR) opioid receptor (Homo sapiens (Human), UniProt P35372); assay: Opioid receptor radioligand binding assay, MOR; conditions: read-out: MOR, IC50, HEK293 cell membranes, 0.5 nM [3H]DAMGO
[3] = target: recombinant human delta (DOR) opioid receptor (Homo sapiens (Human), UniProt P41143); assay: Opioid receptor radioligand binding assay, DOR; conditions: read-out: DOR, IC50, HEK293 cell membranes, 0.5 nM [3H]DADLE

SMILES	IC50 ([1]; tested form: TFA) [µM]	IC50 ([2]; tested form: TFA) [µM]	IC50 ([3]; tested form: TFA) [µM]	IC50 ([1]; tested form: 3HCl) [µM]	IC50 ([2]; tested form: 3HCl) [µM]	IC50 ([3]; tested form: 3HCl) [µM]
CC(C)C[C@H](NC(=O)[C@@H]1Cc2ccccc2CN1C(=O)[C@H](N)Cc1ccccc1)C(=O)N[C@H](CCCCN)C(=O)N1CCC(N)(C(=O)O)CC1	0.123	> 10	> 10			
CC(C)C[C@@H](NC(=O)[C@@H](Cc1ccccc1)NC(=O)C1(N)Cc2ccccc2C1)C(=O)N[C@H](CCCCN)C(=O)N1CCC(N)(C(=O)O)CC1				0.0169	> 10	> 10

Where two headings read alike, the source gives them in different places.
